Test results reported in US11655239B2 (SHANGHAI INSTITUTE OF MATERIAL MEDICA, CHINESE ACADEMY OF …, priority 2019, dated 2023).

Protein sequences, listed by entry. Tags and fused reporters are not part of them. Residues count along the entry.
UniProt Q16832, 563-849 limits assumed: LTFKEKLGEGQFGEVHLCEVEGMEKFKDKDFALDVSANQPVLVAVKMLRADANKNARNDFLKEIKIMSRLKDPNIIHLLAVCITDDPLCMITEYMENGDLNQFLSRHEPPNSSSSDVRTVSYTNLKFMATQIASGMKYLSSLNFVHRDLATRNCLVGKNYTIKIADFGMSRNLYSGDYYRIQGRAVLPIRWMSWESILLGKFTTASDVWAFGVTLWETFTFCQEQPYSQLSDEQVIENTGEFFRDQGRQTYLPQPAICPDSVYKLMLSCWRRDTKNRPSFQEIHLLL

Target: DDR2 (Homo sapiens (Human), UniProt Q16832)
Assay: DDR2 enzyme activity test (ELISA)
Type: biochemical
Settings: read-out: DDR2 IC50
Procedure: The optical rotation and the inhibitory activity against DDR2 enzyme of the compounds S11-A and S11-B obtained by the resolution in Example 12, and the chirally synthesized compounds S11-A′ and S11-B′ in Example 13 were tested (referred to the operation in Effect example 1), and the results are shown in Table 3 below:
Detection method: Enzyme-linked immunosorbent assay (ELISA)
Test receptor tyrosine kinase: DDR2
The kinase used in the experiment was obtained by our laboratory using the insect baculovirus expression system to express and purify the recombinant protein containing the protein kinase region; polyglutamic acid-tyrosine peptide segment [Poly(Glu, Tyr) 4:1] and sodium vanadate were purchased from Sigma; the anti-phosphorylated monoclonal antibody PY99 was purchased from Santa Cruz; horseradish peroxidase labeled goat anti-murine secondary antibody was purchased from Calbiochem; ATP and OPD were purchased from Sangon Biotech (Shanghai) Co., Ltd.; the remaining reagents were purchased from Sinopharm Chemical Reagent Co., Ltd. The reaction ELISA plate (#2592) was purchased from Corning. The full-wavelength microplate reader for experiment reading was a product of Molecular Device, model: SpectraMax 190; the experimental water was distilled water produced by Sinopharm Group.
The compound was centrifuged at 12,000 g for 5 min, and DMSO was added to prepare a 10^-2M stock solution, which was vortexed evenly, then sonicated for 10 min and stored at −40° C. for later use. During the test, the compound was diluted with DMSO from the stock solution to 100 times the test concentration (the DMSO concentration in the system was 1%).
1) Enzyme reaction substrate Poly(Glu, Tyr) 4:1 was diluted to 20 μg/mL with potassium-free PBS (10 mM sodium phosphate buffer, 150 mM NaCl, pH 7.2-7.4), and the microtiter plate was coated with 125 μL/well and placed at 37° C. for 12-16 hours of reaction. The liquid in the well was discard. The plate was washed three times with T-PBS (potassium-free PBS containing 0.1% Tween-20, 200 μL/well), 5 minutes each time. The ELISA plate was dried in an oven at 37° C. for 1 to 2 hours.
2) Reaction buffer (50 mM HEPES pH 7.4, 50 mM MgCl2, 0.5 mM MnCl2, 0.2 mM Na3VO4, 1 mM DTT) diluted ATP solution (49 μL) was added to each well, 1 μL of the compound to be tested was added to each well, and then 50 μL of DDR2 kinase domain recombinant protein diluted in the reaction buffer was added to start the reaction. Two control wells without ATP were set in each experiment. The plate placed on a shaker (100 rpm) at 37° C. for 1 hour of reaction. The liquid in the well was discarded and the plate was washed three times with T-PBS.
3) Antibody PY99 dilution solution (the antibody was diluted 1:500 with T-PBS containing BSA 5 mg/mL) was added at 100 μL/well, and shaken on a shaker at 37° C. for 0.5 hour of reaction. The liquid in the well was discarded and the plate was washed three times with T-PBS.
4) Horseradish peroxidase labeled goat anti-murine secondary antibody dilution solution (the antibody is diluted 1:2000 with T-PBS containing BSA 5 mg/ml) was added at 100 μL/well, and shaken on a shaker at 37° C. for 0.5 hour of reaction. […]
6) 2M H2SO4 was added at 50 μL/well to stop the reaction, and a tunable wavelength microplate reader VERSAmax was used for reading at a wavelength of 490 nm.
The IC50 value was obtained by four-parameter regression using the software that came with the microplate reader.

Point of comparison: C[C@@H](NC(=O)c1ccc(C2CC2)c(-c2ccc3nc(Nc4cnn(C5CCN(C)CC5)c4)ncc3c2)c1)c1cccc(C(F)(F)F)c1, IC50 4.7 nM. Against it:
- C[C@@H](NC(=O)c1cccc(C(F)(F)F)c1)c1ccc(C2CC2)c(-c2ccc3nc(Nc4cnn(C5CC5)c4)ncc3c2)c1 — 71-fold higher, 336 nM
- C[C@H](NC(=O)c1ccc(C2CC2)c(-c2ccc3nc(Nc4cnn(C5CC5)c4)ncc3c2)c1)c1cccc(C(F)(F)F)c1 — 21-fold higher, 100 nM
- C[C@H](NC(=O)c1cccc(C(F)(F)F)c1)c1ccc(C2CC2)c(-c2ccc3nc(Nc4cnn(C5CC5)c4)ncc3c2)c1 — 6.6-fold higher, 31 nM
- C[C@H](NC(=O)c1cccc(C(F)(F)F)c1)c1ccc(C2CC2)c(-c2ccc3nc(Nc4cnn(C5CCN(C)CC5)c4)ncc3c2)c1 — 1.7-fold higher, 8.2 nM
